Data published in article PMC7613515, “Reading and erasing of the phosphonium analogue of trimethyllysine by epigenetic proteins” (Communications Chemistry, 2022).

Legend:
Format in all cases: biochemical
[1] = target: T1, KDM4EJmjC (M1–Q337) (Homo sapiens, UniProt B2RXH2); assay: MALDI-TOF demethylation assay, KDM4EJmjC
T1 construct: We chose human KDM4EJmjC (M1–Q337); made in house
T1 sequence (B2RXH2 1-337): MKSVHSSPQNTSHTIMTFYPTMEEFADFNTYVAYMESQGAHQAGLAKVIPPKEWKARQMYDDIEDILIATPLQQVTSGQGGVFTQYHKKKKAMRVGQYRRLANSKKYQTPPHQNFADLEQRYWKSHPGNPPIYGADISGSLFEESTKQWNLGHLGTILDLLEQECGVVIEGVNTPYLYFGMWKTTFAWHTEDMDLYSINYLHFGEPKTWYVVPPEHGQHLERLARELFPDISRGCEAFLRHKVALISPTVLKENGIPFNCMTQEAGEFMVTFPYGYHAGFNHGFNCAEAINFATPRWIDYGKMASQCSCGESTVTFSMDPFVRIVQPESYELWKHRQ
Text: We chose human KDM4EJmjC (M1–Q337), a histone H3K9me3/2 demethylase with relatively high demethylation activity as a model enzyme. Reactions were monitored using MALDI-TOF mass spectrometry (Fig. 5b–d).
A Bruker Daltonics MALDI-TOF/TOF AutoflexSpeed machine and Bruker MTP 384 target plates (polished steel BC, Part: 8280781) were used. The machine was controlled using Flex control (v. 3.4 build 135.10) and Compass for flex series (v. 1.4) software. Measurements were in the positive ion mode with the reflectron mode enabled. Incubations employed ProxiPlate-384™ (Perkin Elmer) plates into which was pipetted a solution of [H3_1-15K9me3 (10.0 µM), (+)-sodium L-ascorbate (1.0 mM), (NH4)2Fe(II)(SO4)2 (100 µM), di-sodium 2-oxoglutarate (200 µM) in buffer (HEPES (50 mM)) in MilliQ (pH 7.5)] (5.0 µL) using ClipTip™ (Thermo Scientific™) pipette tips and E1-ClipTip™ (Thermo Scientific™). The enzyme solution [KDM4EJmjC (1.0 µM) in HEPES (50 mM)] (5.0 µL) was added to initiate reaction at 37 °C. Reactions were quenched with formic acid in water (2%, 5.0 µL). Samples were then spotted onto a MALDI-TOF target plate (1.0 µL), MALDI matrix [sat. sol. α-cyano-4-hydroxy-cinnamic acid (10 mg·mL^−1) in {trifluoro acetic acid, acetonitrile and MilliQ (0.1:50:50)}] (1.0 µL) was added, mixed, and dried in air. Samples were then analysed by MALDI-TOF. Specific experiments were supplemented with catalase from bovine liver (C3155-50MG, Merck) (5.0 µM), bovine albumin serum (BSA, Perkin Elmer, CR84-100, DTPA purified 7.5%) (5.0 µM), or Tris(carboxyethyl)phosphine hydrochloride salt (TCEP, M02624, Fluorochem) (500 µM).

[2] = target: T1, KDM4EJmjC (M1–Q337); assay: FDH coupled demethylation assay (formaldehyde release), KDM4EJmjC; conditions: FDH-coupled NADH, KDM4EJmjC 0.1 µM, peptide 0–50 µM, n = 2 or 3
Experimental: To test whether formaldehyde is generated by H3KP9me3 demethylation, a formaldehyde dehydrogenase (FDH) coupled assay was employed (Supplementary Fig. 19a)[34],[37].
Supplementary Fig. 19 KDM4EJmjC catalysed demethylation of H3K9me 3 coupled to formaldehyde dehydrogenase measurement of the formation of NADH. a FDH enzyme coupled to KDM4E JmjC demethylation assay measuring the levels of NADH as function of the demethylation. b FDH Activity assay with KDM4E JmjC (0.1 µM) and varied concentrations of H3K9me 3 (0–50 µM). c Michaelis-Menten analysis. Standard conditions: FDH (1.0 µM), Asc (1.0 mM), Fe(II) (50 µM), 2OG (200 µM) and NAD+ (250 µM). Errors are standard deviations of the mean (n = 2 or 3).
(1 picture or pasted object on this page, not shown here)
Supplementary Fig. 20 FDH activity assay of KDM4E JmjC (0–10 µM) catalysed demethylation of H3K P9me 3 (10 µM) […]
Standard conditions: FDH (1.0 µM), Ascorbate (1.0 mM), Fe(II) (50 µM), 2OG (200 µM) and NAD + (250 µM). Errors are standard deviations of the mean (n = 3 or 4).

[3] = system: KDM7BJmjC (M37–N483); assay: MALDI-TOF demethylation assay, KDM7BJmjC; conditions: 1 hr
Text: To investigate whether H3KP9me3 can be demethylated by other human KDM4 subfamily members, recombinant KDM4AJmjC (M1–L359) and KDM4DJmjC (M1–L358) were produced in E. coli following an adaption of literature procedures[38],[39]. […] No evidence for further demethylation was accrued. […] To test the ability of KDM3 and KDM7 subfamily representatives to demethylate H3KP9me2 or H3KP9me3, KDM3AJmjC (T515–S1317) and KDM7BJmjC (M37–N483) were produced using baculovirus/sf9 and E. coli expression systems, respectively[40],[41]. The synthesis of a histone H3 mimic peptide H3KP9me2 substrate is challenging as the tri-alkylated phosphine group is susceptible to oxidation during synthesis of the protected amino acid and during SPPS requiring oxygen-free conditions. Thus, to investigate if KDM3AJmjC or KDM7BJmjC can catalyse demethylation of H3KP9me2, an appropriate H3KP9me2 substrate was prepared in situ from H3KP9me3 using KDM4EJmjC (2.0 µM), in the presence of KDM3AJmjC (2.0 µM) or KDM7BJmjC (2.0 µM).
A Bruker Daltonics MALDI-TOF/TOF AutoflexSpeed machine and Bruker MTP 384 target plates (polished steel BC, Part: 8280781) were used. The machine was controlled using Flex control (v. 3.4 build 135.10) and Compass for flex series (v. 1.4) software. Measurements were in the positive ion mode with the reflectron mode enabled. […] Samples were then analysed by MALDI-TOF. […]

[4] = MALDI-TOF, KDM4EJmjC 0.5 µM, H3K9me3 1–20 µM, Asc 500 µM, Fe(II) 50 µM, 2OG 100 µM, HEPES pH 7.5, 37 °C, n=2

ARTKQTAR(Kme3)STGGKA [H3K9me3, natural trimethyllysine control peptide, histone H3 residues 1–15, reference compound]
demethylation in competition assay ([1]; H3K9me3 (5.0 µM) and H3KP9me3 (5.0 µM) in the same vessel, KDM4EJmjC 0.5 µM): converted to H3K9me2/1 with the same efficiency as the control | relative substrate quality / rate ([1]; H3K9me3 versus H3KP9me3): substantially better substrate than H3KP9me3 | demethylation in omission controls ([1]; H3KP9me3: without KDM4EJmjC, Asc, Fe(II) or 2OG, H3K9me3: without Asc and Fe(II), 1 hr): some demethylation was observed | demethylation ([1]; KDM4EJmjC 0.5 µM (H3KP9me3 also at 5.0 µM enzyme), peptide 5.0 or 6.0 µM, Asc 500 µM, Fe(II) 50 µM, 2OG 100 µM): efficiently catalysed the di-demethylation | Km [1, 4]: 6.1 µM | Vmax [1, 4]: 2.7 µM/min | kcat [1, 4]: 5.3 min⁻¹ | Km ([2]; FDH 1.0 µM, Asc 1.0 mM, Fe(II) 50 µM, 2OG 200 µM, NAD+ 250 µM): 5.1 µM | Vmax [2]: 0.61 µM/min | kcat [2]: 6.1 min⁻¹ | demethylation in combination with KDM4EJmjC ([3]; KDM7BJmjC 2.0 µM plus KDM4EJmjC 2.0 µM, peptide 5.0 µM): manifests conversion to H3K9me1 | demethylation ([3]; KDM7BJmjC 2.0 µM, H3KP9me2 prepared in situ with KDM4EJmjC): do not catalyse demethylation of H3K9me3
